The values below come from patent publication US7767822B2, “Water-soluble tetrazolium salts” (Bayer Healthcare LLC, priority 2005, dated 2010).

The nature of the data set: Solubility of tetrazolium salts in 0.2M phosphate buffer. Type of data set: physicochemical.

Where two headings read alike, the source gives them in different places.

Turning to “5-Benzo[1,3 dioxol-5-yl]-3-[2-(3-trimethylammonium) propoxy-phenyl]-2-(5-chloro-4-difluoromethyl-thiazol-2-yl)-2H-tetrazolium bromo nitrite salt [Example 1]”, the “Solubilility” value (0.2M phosphate buffer, pH ~7.5, room temperature) amounted to 33 mM.

Take `CCOc1ccc2nc(-n3nc(-c4ccc(OCCC[N+](C)(C)C)c(OC)c4)n[n+]3-c3ccccc3OCCC[N+](C)(C)C)sc2c1.O=N[O-].[Br-].[Br-]` [Example 7]: the “Solubilility” value is given as 167 mM.
